PubChem BioAssay AID1329 (NMMLSC, 2008)
This is a selection; strong and weak results do not stand in their true shares. Activity calls are given as the source filed them. No rule for the calls is given here.

Amino acid sequences for entries named in this document (tags omitted).
UniProt Q07820, whole entry, looked up: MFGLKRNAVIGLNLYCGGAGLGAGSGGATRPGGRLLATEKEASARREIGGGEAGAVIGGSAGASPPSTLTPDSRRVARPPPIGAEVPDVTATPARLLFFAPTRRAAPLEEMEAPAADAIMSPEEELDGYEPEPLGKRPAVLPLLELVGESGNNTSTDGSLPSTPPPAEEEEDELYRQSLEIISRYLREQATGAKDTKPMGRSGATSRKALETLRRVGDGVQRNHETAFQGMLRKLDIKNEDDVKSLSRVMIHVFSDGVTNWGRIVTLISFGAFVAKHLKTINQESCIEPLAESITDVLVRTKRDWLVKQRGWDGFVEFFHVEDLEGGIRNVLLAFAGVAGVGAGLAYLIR

Target: Induced myeloid leukemia cell differentiation protein Mcl-1 (Homo sapiens) (UniProt Q07820)
Assay: modulators of Bim peptide binding to Mcl-1, dose response, biochemical, bead-based flow cytometry, multiplexed, human (AID 1329)
Settings: Bim peptide-Mcl-1 binding, MCF

Structure (SMILES): CCOP1(=S)c2c(C)nn(CCC#N)c2N=C(c2ccc(F)cc2)N1C (stereo unspecified)
- percent span: inactive
